Source: patent publication US11884734B2, “Anti-MET antibodies and methods of use thereof” (Celldex Therapeutics, Inc., priority 2015, dated 2024)

Biological target: T1, cell surface expressed MET (Homo sapiens, UniProt P08581)
T1 construct: cell lines expressing wild-type MET such as A549 and U87MG cells; endogenous in cells; host or cells: A549
Assay: FACS competition with Alexa-647-labeled Ab235 on A549 cells
Type: binding
Conditions: unlabeled antibody against Alexa-647-labeled Ab235
Description: Antibodies were labeled with Alexa 647 (Invitrogen) according to the manufacturer's instructions. A549 cells were removed from T175 cells with 10 mL of 2 mM EDTA in PBS and the flask was rinsed with 5 mL of PBS. The cells were spun down at 1,200 RPM for 3 minutes. The cells were resuspended in pre-chilled FACS buffer and the cells were counted. The cells were then diluted to 1×10^6 cells/mL and incubated in FACS buffer on ice for 1 hour. 100 μL of cells were transferred to wells of U-Bottom 96 well plate and cells were pelleted at 1,200 rpm for 3 minutes and the buffer was discarded. The antibodies (600 nM initial concentration) were diluted in FACS buffer and Alexa-647-labeled antibodies were diluted to a final concentration of 6 nM. 25 μL of the diluted 6 nM Alexa-647-labeled antibody, and 25 μL of the unlabeled diluted antibody at varying concentrations was added to each well and the cells were incubated on ice for 4 hours to allow antibody binding to reach equilibrium. The cells were pelleted at 1,200 rpm for 3 minutes and the buffer was discarded. Next, the cells were washed with 200 μL of FACS buffer four times (spin at 1,200 rpm for 3 minutes at 4° C.). […] The mean fluorescence intensity of each point was plotted using specific binding program with GraphPad Prism software, and binding affinity was calculated.

B1: Ab240: control anti-MET antibody that binds the IgG domains of MET; VL SEQ ID NO: 62, VH SEQ ID NO: 71 (antibody, V domains shown)
VH: QVQLKESGPGLVQPSQTLSLTCSVSGLSLTTNSVHWIRQPPGRGLEWMGVIWGDGSTDYNSALKSRLTISRDTSRSQVFLKMNSLQTDDTAIYFCARDPYQNYFDYWGQGVKVTVSS
VL: DIQMTQTPFYMPASLGERVTISCRASQGISKYLNWYQQKPDGTIKTLIYYTSNLQSGVPSSALKSRLTISRDTSRSQVFLKMNSLQTDDTAIYFCARDPYQNYFDYWGQGVKVTVSS
  inhibition of the binding of labeled Ab235 to cell surface expressed MET: did not inhibit
